IC50 data for 1 compound are collected here from PMC8199578, “Anti-Inflammatory, Antiallergic, and COVID-19 Main Protease (M^pro) Inhibitory Activities of Butenolides from a Marine-Derived Fungus Aspergillus terreus” (Molecules, 2021).

This test has as its target T1, human neutrophil elastase (Homo sapiens, UniProt P08246).
T1 construct: followed by fMLF (0.1 μM) for 20 min to release the elastase from the cells; endogenous in cells; host or cells: human neutrophils; degranulation supernatant after CB/fMLF stimulation
T1 sequence (P08246 30-247 limits assumed): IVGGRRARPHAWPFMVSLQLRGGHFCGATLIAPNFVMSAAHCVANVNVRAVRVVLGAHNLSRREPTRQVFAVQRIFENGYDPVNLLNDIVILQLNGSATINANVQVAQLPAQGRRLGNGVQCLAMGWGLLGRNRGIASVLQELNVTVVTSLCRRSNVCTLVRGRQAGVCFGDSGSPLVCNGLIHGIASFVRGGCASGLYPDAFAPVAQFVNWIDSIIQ
As to the kind of experiment: Elastase enzymatic activity (cell-free). The test is classed as biochemical. Particulars: positive control. The method, then:
The compounds were further tested for direct inhibition of elastase enzymatic activity. The neutrophil suspension (6 × 10^5 cells mL^−1) was preheated for 5 min in the presence of CaCl2 (1 mM) at 37 °C. Priming agent CB (1.5 μg mL^−1) was added for 2 min, followed by fMLF (0.1 μM) for 20 min to release the elastase from the cells. After centrifugation at 1000 g for 5 min at 4 °C, the supernatant containing elastase was preheated at 37 °C for 5 min, and the test compounds were added. Then, 0.1 mM of substrate methoxysuccinyl-Ala-Ala-Pro-Val-p-nitroanilide was added for 10 min. The effect of the compounds on elastase enzymatic activity was quantified by measuring the absorbance at 405 nm.

For orientation: IC50 means the concentration that inhibits the measured activity by half. Higher therefore signals weaker potency. In turn, `CC(C)(C)C(=O)Oc1ccc(S(=O)(=O)Nc2ccccc2C(=O)NCC(=O)O)cc1` [Sivelestat, reference compound] had an IC50 of 17.9 nM.
